From PMC3273674 (Biochimica et Biophysica Acta, 2011)

Test system: dsDNA ([…])
Experiment: DNA binding by fluorescence intercalator displacement
Conditions: C50 normalized compared to BF2

CC[C@H](C)[C@H](NC(=O)[C@H](CCCNC(=N)N)NC(=O)[C@@H](NC(=O)[C@H](CCCCN)NC(=O)[C@H](CCCCN)NC(=O)[C@H](CC(N)=O)NC(=O)[C@H](CC(=O)O)NC(=O)[C@H](CCCNC(=N)N)NC(=O)[C@H](C)N)[C@@H](C)O)C(=O)N[C@@H](Cc1c[nH]c2ccccc12)C(=O)N1CCC[C@H]1C(=O)N[C@@H](CCCNC(=N)N)C(=O)N[C@@H](Cc1c[nH]cn1)C(=O)N[C@@H](CC(C)C)C(=O)N[C@@H](CCC(N)=O)C(=O)N[C@@H](CC(C)C)C(=O)N[C@@H](C)C(=O)N[C@H](C(=O)N[C@@H](CCCNC(=N)N)C(=O)N[C@@H](CC(N)=O)C(=O)O)C(C)C [DesHDAP1]
Relative C50: 1.28
